Earlier results, collected in patent US6444645B1, “Crosslink-stabilized indolicidin analogs” (The Regents of the University of California, priority 1998, dated 2002).
Like-named read-outs stand apart in the source and are kept apart here.

Tested on: fungal infection
Details: indolicidin incorporated into liposomes, mice, cited from earlier work

## Ile-Leu-Pro-Trp-Lys-Trp-Pro-Trp-Trp-Pro-Trp-Arg-Arg-CONH2 [Indol 1-13]
  antifungal activity in vivo: antifungal activity in vivo
Listed as native indolicidin
  antifungal activity in vivo: fungal infection in mice could be cured
